Chains of the proteins cited; added tags and fusions are not shown. Residues count along the entry.
UniProt Q9Y5Z0, 63-473 limits assumed: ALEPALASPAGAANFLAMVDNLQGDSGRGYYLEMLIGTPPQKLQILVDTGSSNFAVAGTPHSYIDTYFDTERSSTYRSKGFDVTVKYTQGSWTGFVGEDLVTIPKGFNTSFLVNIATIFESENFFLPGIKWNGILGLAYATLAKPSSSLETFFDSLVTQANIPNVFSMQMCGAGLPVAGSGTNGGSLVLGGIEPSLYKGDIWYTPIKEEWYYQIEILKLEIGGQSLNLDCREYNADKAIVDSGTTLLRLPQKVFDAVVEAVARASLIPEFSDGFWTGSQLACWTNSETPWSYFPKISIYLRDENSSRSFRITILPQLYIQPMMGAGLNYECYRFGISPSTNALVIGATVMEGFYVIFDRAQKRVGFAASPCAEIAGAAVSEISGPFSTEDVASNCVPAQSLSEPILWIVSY

In patent US9096541B2:

Key:
[1] = tested on: ob/ob mice; assay: Reduction of plasma glucose in ob/ob mice; details: 30 mg/kg daily intraperitoneal; for plasma glucose level compared with control group: 3 days after first injection
[2] = tested on: memapsin 1 processing of Tmem27 in MIN6 cells; assay: Inhibition of Tmem27 processing in MIN6 cells (Western blot of C-terminal fragment); details: DAPT present
[3] = target: memapsin 1 (Homo sapiens (Human), UniProt Q9Y5Z0); assay: Inhibition of recombinant memapsin 1 ectodomain, fluorescent substrate

SMILES	time glucose suppression lasted after inhibitor injection stopped [1]	plasma glucose level compared with control group [1]	further results
CC(C)CC(NC(=O)c1cc(C(=O)NC(C)c2ccccc2)cc(N(C)S(C)(=O)=O)c1)[C@@H](O)C[C@@H](C)C(=O)N[C@H](C(=O)NC(C)C)C(C)C (some centres unmarked)	over 21 days	dropped and remained below that of the control group	
CC(C)CNC(=O)[C@@H](NC[C@@H](O)[C@H](Cc1ccccc1)NC(=O)c1cc(C(=O)N[C@H](C)c2ccccc2)cc(N(C)S(C)(=O)=O)c1)[C@H](C)O	3 days	dropped below that of the control group	22-kDa C-terminal fragment of Tmem27 remaining ([2]; 0.4 μM inhibitor): less than 5%; 22-kDa C-terminal fragment of Tmem27 ([2]; 0.9 μM inhibitor): completely abolished
COc1ccc([C@H](NC[C@H](Cc2ccccc2)NC(=O)c2cc(C(=O)N[C@H](C)c3ccccc3)cc(N(C)S(C)(=O)=O)c2)[C@H](C)O)cc1			IC50 ([3]; read-out: M1 inhibition Ki or IC50, cells marked (IC50)): 700 nM
CCC[C@H](O)[C@H](NC[C@H](Cc1ccccc1)NC(=O)c1cc2c3c(c1)c(CC)cn3CC(C)(C)S(=O)(=O)N2C)C(=O)NC(C)C			Ki ([3]; read-out: M1 inhibition Ki or IC50, cells not marked (IC50)): 30 nM
